These results are taken from patent US8778974B2, “Trisubstituted 1,2,4 triazoles” (Janssen Pharmaceutica NV, priority 2008, dated 2014).

Protein sequences, listed by entry. Tags and fused reporters are not part of them. Residues count along the entry.
UniProt P36544, 23-502 limits assumed: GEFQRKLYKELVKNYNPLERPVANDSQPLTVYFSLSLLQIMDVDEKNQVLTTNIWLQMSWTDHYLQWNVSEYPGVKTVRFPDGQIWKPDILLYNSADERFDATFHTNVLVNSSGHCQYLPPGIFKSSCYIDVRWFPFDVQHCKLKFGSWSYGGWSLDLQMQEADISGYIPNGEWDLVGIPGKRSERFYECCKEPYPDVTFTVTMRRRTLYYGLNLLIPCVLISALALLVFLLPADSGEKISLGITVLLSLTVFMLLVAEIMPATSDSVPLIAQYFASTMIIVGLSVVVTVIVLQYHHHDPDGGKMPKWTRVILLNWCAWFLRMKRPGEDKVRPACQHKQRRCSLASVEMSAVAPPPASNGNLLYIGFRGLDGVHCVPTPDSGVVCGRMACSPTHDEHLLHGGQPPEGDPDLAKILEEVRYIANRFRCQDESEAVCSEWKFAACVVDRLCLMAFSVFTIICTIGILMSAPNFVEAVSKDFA

The target of the assay is hα7-wt nAChR-expressing GH4Cl cells (Homo sapiens, UniProt P36544). The experiment in a line: Patch-clamp current recording (whole-cell), potentiation of choline 1 mM response, PAM type. The method, then:
The compounds of the present invention are classified as type 1-4, based on qualitative kinetic properties, as determined by whole-cell voltage-clamp recordings. This classification is based on the effect of an α7 PAM compound, as described hereinbefore, on the signal elicited by an agonist application. In particular, said agonist is choline at a concentration of 1 mM. In a preferred experimental setting, said α7 PAM compound and choline are simultaneously applied to the cell, as described hereinafter. Desensitization is defined as the closure of the receptor upon activation during the application of the agonist in whole-cell voltage-clamp electrophysiology measurements seen as the reduction of the […] current after initial activation by the agonist.
The definition of the PAM types 1-4 is described hereinafter: • Type 0 compounds minimally enhance the effect size of the current elicited by 1 mM choline. • Type 1 compounds enhance the effect size of the current elicited by 1 mM choline but minimally alter the kinetics of the receptor. In particular, the rate and the extent of desensitization, elicited by the agonist, is not affected. […]

On to `Cc1cc(-n2nc(Nc3ccc(F)c(C(F)(F)F)c3)nc2C[C@@H](C)O)ccn1`, for which the “Potency (pEC50)” value (according to Ex. D.2, "<5" = no top plateau reached at maximal concentration) came out at 5.73. In addition, the Pam type (patch-clamp current recording, 1 mM choline) is 2.
